## AlphaSeq binding of Ab-14 heavy chain variants to a spike HR2 peptide

Data: MIT Lincoln Laboratory AlphaSeq set, Engelhart et al. 2022, doi:10.1038/s41597-022-01779-4, as distributed in FLAb.

Binding partner: SARS-CoV-2 spike HR2 peptide, sequence PDVDLGDISGINAS.

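The starting antibody came from a phage panning campaign against this peptide. Library AAYL49 holds single substitutions and randomly drawn double and triple substitutions in the CDRs. The scFvs were displayed on barcoded MATa yeast, the peptide on MATalpha yeast. After mating in shaken culture at 30 °C for 16 h, diploids were selected and their barcode pairs sequenced. A regression on co-assayed BCL2-family reference pairs converts the normalised counts of each replicate to an apparent Kd. The assay was run in three technical replicates.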

Ab-14 is the parent antibody, in scFv form: VH, then the linker GGGGSGGGGSGGGGS, then VL. The light chain is unchanged in all variants.
VH: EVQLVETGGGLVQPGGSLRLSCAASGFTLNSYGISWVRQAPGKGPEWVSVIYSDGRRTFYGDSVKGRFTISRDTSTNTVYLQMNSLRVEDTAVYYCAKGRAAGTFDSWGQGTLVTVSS
VL: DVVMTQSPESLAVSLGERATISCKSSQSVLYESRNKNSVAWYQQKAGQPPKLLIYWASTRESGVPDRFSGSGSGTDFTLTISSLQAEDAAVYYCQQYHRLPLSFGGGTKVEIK

Substitutions are numbered in sequence along the VH above, starting at 1 (not Kabat). Values are log10 of the apparent Kd in nM; lower means stronger binding. Replicates are averaged; those with no signal do not enter the mean. An entry "n.d." has no value in the source: the pair was not observed among the diploids in that replicate. This suggests poor binding but is not conclusive.

changes,"replicates, log10 nM","mean, log10 nM",empty controls
F27M/K65S/G99W,n.d. / n.d. / n.d.,n.d.,0 of 9
V64A/K65N/A101G,n.d. / n.d. / n.d.,n.d.,2 of 9 (4.69)
V50I/G61L,1.79 / 1.69 / 1.82,1.77,5 of 9 (4.95)
N30C/G99C,n.d. / 2.45 / n.d.,2.45,1 of 9 (2.75)
I34G/T58R/G61Y,3.23 / n.d. / n.d.,3.23,2 of 9 (3.98)
F27E/R56S/T104F,n.d. / n.d. / n.d.,n.d.,2 of 9 (4.20)
S35D/V50R/A102T,n.d. / n.d. / n.d.,n.d.,1 of 9 (3.27)
F59M/D62M/A101R,5.76 / n.d. / n.d.,5.76,2 of 9 (4.13)
L29Y/I34A/I51M,n.d. / n.d. / n.d.,n.d.,0 of 9
Y32P/S63K,n.d. / n.d. / n.d.,n.d.,0 of 9
R56E/D62W/F105C,n.d. / 4.28 / n.d.,4.28,0 of 9
S35E/D54R/G99S,n.d. / n.d. / n.d.,n.d.,0 of 9
I34A/D54S/G99C,n.d. / 3.49 / 4.52,4.00,0 of 9
R57W/V64F,n.d. / 4.52 / n.d.,4.52,3 of 9 (3.22)
T28D/I34P/V50A,n.d. / n.d. / n.d.,n.d.,0 of 9
I51F/Y52K/S63R,3.39 / n.d. / n.d.,3.39,1 of 9 (3.65)
S35V/D54H/A101P,4.62 / 3.95 / 4.33,4.30,2 of 9 (3.88)
Y32E/I34C/D62L,n.d. / n.d. / n.d.,n.d.,0 of 9
G103H/T104H/D106P,n.d. / n.d. / n.d.,n.d.,0 of 9
F59C/D106P,3.49 / n.d. / n.d.,3.49,0 of 9
F27N/R56Y/A102Y,n.d. / n.d. / n.d.,n.d.,0 of 9
L29N/G33M/V50F,n.d. / 3.42 / 3.15,3.29,0 of 9
I51W/D62M/D106F,n.d. / n.d. / n.d.,n.d.,0 of 9
N30W/G55L/S107W,5.05 / n.d. / 3.14,4.09,0 of 9
S53R/D62F/V64P,n.d. / n.d. / n.d.,n.d.,0 of 9
G26A/S35P/G103F,n.d. / 3.54 / 5.72,4.63,1 of 9 (2.87)
F27Y/S31N/V64T,3.51 / 3.24 / 4.20,3.65,6 of 9 (4.14)
G26A/F27C/T58D,n.d. / n.d. / n.d.,n.d.,0 of 9
Y52Q/G55A/G103I,n.d. / n.d. / 2.86,2.86,1 of 9 (2.84)
L29I/S53H/D54C,n.d. / n.d. / n.d.,n.d.,1 of 9 (1.42)
F59D/G61S/S63P,3.74 / n.d. / n.d.,3.74,0 of 9
T58H/F105P/S107W,2.13 / 2.45 / 2.72,2.44,0 of 9
F59I/K65P/T104V,n.d. / n.d. / 5.45,5.45,2 of 9 (4.07)
T58Y/Y60W/D106L,n.d. / n.d. / 3.48,3.48,1 of 9 (2.48)
T58W/Y60F/S63F,5.30 / n.d. / n.d.,5.30,2 of 9 (3.62)
S35E/R56E,n.d. / n.d. / n.d.,n.d.,1 of 9 (3.28)
G26H/S53Y/R56I,4.22 / 2.70 / n.d.,3.46,0 of 9
S35F/K65L/A101K,n.d. / n.d. / n.d.,n.d.,1 of 9 (4.15)
G55F/R100G/T104V,n.d. / n.d. / n.d.,n.d.,1 of 9 (2.22)
F27G/L29W/R100I,n.d. / 3.83 / n.d.,3.83,0 of 9
G26L/L29F/Y32W,n.d. / n.d. / n.d.,n.d.,1 of 9 (3.60)
L29M/F59L/T104Q,n.d. / n.d. / n.d.,n.d.,0 of 9
T28N/S35K/V64A,1.97 / n.d. / n.d.,1.97,0 of 9
L29V/G33K/S35N,4.02 / n.d. / n.d.,4.02,1 of 9 (3.87)
D62F/S63N/T104P,n.d. / n.d. / n.d.,n.d.,0 of 9

Top 4 of the variants detected in all replicates, tightest first:

changes,"replicates, log10 nM","mean, log10 nM",empty controls
V50I/G61L,1.79 / 1.69 / 1.82,1.77,5 of 9 (4.95)
T58H/F105P/S107W,2.13 / 2.45 / 2.72,2.44,0 of 9
F27Y/S31N/V64T,3.51 / 3.24 / 4.20,3.65,6 of 9 (4.14)
S35V/D54H/A101P,4.62 / 3.95 / 4.33,4.30,2 of 9 (3.88)

As a blank, each scFv also met three strains without target: over library AAYL49, 15% of these pairings were detected, typically at 4.06 and seldom below 2.83. For each scFv, signals with the empty controls are counted beside the result, with their mean in brackets.